Measured values taken from ChEMBL document CHEMBL1137610, “Development of novel enkephalin analogues that have enhanced opioid activities at both mu and delta opioid receptors” (2007).

By UniProt entry, the sequences of proteins in these tests, tags left out. Residues count along the entry.
UniProt Q8CGM4, 1-400: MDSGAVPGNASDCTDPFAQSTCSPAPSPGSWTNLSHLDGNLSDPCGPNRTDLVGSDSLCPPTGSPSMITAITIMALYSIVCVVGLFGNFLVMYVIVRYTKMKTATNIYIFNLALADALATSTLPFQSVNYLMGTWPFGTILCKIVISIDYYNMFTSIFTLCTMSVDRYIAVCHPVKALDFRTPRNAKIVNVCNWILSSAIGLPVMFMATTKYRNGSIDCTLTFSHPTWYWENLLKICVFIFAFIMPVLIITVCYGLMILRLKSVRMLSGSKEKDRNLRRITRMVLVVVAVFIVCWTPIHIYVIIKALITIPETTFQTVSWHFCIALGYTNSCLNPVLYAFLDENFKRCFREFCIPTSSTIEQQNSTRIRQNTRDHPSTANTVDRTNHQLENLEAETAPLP
UniProt P32300, whole entry, looked up: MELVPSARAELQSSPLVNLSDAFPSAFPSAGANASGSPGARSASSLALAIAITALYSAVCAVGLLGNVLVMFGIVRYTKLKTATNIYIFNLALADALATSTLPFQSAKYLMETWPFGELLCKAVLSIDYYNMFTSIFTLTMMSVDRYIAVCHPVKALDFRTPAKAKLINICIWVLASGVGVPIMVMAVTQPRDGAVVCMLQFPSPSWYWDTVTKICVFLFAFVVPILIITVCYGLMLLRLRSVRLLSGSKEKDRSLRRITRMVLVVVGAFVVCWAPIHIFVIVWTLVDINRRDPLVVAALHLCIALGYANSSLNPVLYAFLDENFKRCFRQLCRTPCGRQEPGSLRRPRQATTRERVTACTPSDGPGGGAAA
UniProt P33535, whole entry, looked up: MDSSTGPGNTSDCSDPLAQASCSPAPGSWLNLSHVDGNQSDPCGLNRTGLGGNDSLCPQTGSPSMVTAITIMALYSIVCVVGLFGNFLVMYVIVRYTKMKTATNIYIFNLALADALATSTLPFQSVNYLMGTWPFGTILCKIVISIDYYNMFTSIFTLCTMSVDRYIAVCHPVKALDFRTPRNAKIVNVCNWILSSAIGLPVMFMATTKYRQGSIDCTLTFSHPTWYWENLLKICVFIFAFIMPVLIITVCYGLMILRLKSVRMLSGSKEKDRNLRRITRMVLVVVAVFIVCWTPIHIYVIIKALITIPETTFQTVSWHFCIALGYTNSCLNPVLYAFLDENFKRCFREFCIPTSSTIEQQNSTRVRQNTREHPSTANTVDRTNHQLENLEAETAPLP
UniProt P41143, whole entry, looked up: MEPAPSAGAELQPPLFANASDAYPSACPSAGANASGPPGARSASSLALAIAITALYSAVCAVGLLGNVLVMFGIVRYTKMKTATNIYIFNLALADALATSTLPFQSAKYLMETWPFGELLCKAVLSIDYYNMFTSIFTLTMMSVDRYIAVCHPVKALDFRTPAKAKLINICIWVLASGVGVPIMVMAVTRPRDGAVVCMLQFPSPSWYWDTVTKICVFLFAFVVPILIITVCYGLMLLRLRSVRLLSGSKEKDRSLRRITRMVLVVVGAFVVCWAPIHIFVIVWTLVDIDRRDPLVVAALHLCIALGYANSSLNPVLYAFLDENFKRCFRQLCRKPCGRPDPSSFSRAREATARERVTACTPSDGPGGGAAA

Columns and labels:
Mu-opioid receptor = Mu-opioid receptor (Cavia porcellus, UniProt Q8CGM4); assay: Agonist activity at guinea pig mu-opioid receptor by GPI assay
[1] = molecular target: Delta-type opioid receptor (Mus musculus, UniProt P32300); assay: Agonist activity at mouse delta-opioid receptor by MVD assay
Mu-type opioid receptor [2] = molecular target: T1, Mu-type opioid receptor (Rattus norvegicus, UniProt P33535); assay: Displacement of [3H]DAMGO from rat mu-opioid receptor transfected in HN9.10 cells after 3 hrs
[3] = molecular target: T2, Delta-type opioid receptor (Homo sapiens, UniProt P41143); assay: Displacement of [3H]DPDPE from human delta-opioid receptor transfected in HN9.10 cells after 3 hrs
Mu-type opioid receptor [4] = molecular target: T1, Mu-type opioid receptor; assay: Agonist activity at rat mu-opioid receptor expressed in CHO cells after 90 mins by [35S]GTP-gamma-S assay
[5] = molecular target: T2, Delta-type opioid receptor; assay: Agonist activity at human delta-opioid receptor expressed in CHO cells after 90 mins by [35S]GTP-gamma-S assay

| Structure (SMILES) | IC50 (Mu-opioid receptor) | IC50 [1] | Ki (Mu-type opioid receptor [2]) | Log IC50 (Mu-type opioid receptor [2]) | Ki [3] | Log IC50 [3] | EC50 (Mu-type opioid receptor [4]) | EC50 [5] |
| --- | --- | --- | --- | --- | --- | --- | --- | --- |
| C[C@@H](NC(=O)[C@@H](N)Cc1ccc(O)cc1)C(=O)NCC(=O)N[C@@H](Cc1ccccc1)C(N)=O | 47 nM | 120 nM |  |  |  |  |  |  |
| C[C@@H](NC(=O)[C@@H](N)Cc1ccc(O)cc1)C(=O)NCC(=O)N[C@@H](Cc1ccccc1)C(=O)NC1CCN(CCc2ccccc2)CC1 | 160 nM | 380 nM | 14 nM | -7.52 | 14 nM | -7.51 |  |  |
| C[C@@H](NC(=O)[C@@H](N)Cc1ccc(O)cc1)C(=O)NCC(=O)N[C@@H](Cc1ccccc1)C(=O)NNC(=O)CCC(=O)NC1CCN(CCc2ccccc2)CC1 | 47 nM | 250 nM | 1.2 nM | -8.6 | 3.7 nM | -8.12 | 16 nM | 29 nM |
